# In PubChem BioAssay AID1460 (National Center for Advancing Translational Sciences (NCATS), 2008):
# By UniProt entry, the sequences of proteins in these tests, tags left out.
# UniProt P10636, whole entry, looked up: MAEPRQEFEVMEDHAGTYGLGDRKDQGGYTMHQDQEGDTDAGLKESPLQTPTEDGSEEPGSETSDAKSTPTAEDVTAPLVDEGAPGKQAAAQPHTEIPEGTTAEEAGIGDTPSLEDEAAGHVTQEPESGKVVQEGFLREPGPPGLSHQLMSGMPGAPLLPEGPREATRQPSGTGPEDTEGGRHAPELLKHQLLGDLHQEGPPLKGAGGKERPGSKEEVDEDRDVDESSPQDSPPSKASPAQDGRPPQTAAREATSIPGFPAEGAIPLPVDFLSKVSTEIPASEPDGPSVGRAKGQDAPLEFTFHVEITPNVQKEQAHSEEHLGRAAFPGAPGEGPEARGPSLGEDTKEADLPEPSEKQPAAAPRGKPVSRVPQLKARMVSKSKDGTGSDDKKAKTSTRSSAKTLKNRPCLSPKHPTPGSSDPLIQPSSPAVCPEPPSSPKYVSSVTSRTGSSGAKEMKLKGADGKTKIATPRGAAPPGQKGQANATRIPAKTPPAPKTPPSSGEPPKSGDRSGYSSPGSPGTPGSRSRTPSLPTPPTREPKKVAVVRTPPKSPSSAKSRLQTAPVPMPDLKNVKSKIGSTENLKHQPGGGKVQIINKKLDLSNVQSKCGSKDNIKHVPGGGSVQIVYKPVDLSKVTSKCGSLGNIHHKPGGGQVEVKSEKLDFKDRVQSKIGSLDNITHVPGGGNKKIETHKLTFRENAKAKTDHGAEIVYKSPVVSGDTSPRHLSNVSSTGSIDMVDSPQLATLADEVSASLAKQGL
# This is a selection; strong and weak results do not stand in their true shares. Records with an inconclusive call do not appear. The source made the active and inactive calls. Calls come from the whole dose curve; as a rule, active = well fitted inhibition curve with a large enough effect; inconclusive = small, poorly fitted or top-dose-only effect; inactive = flat fitted curve, though single readings scatter.
# Molecular target: Microtubule-associated protein tau (Homo sapiens) (UniProt P10636)
# Assay: qHTS for Inhibitors of Tau Fibril Formation, Thioflavin T Binding; note: nearly all actives have a fitted effect of over 55% in size
# Details: recombinant tau K18 P301L (four-repeat tau fragment), heparin-induced fibrillization, ThT fluorescence; series mostly up to 57.4 µM; activity, negative = inhibition: at the top concentration
# % is set by controls: 0 for no effect and ±100 for the full control effect; potency is the fitted concentration of half-maximal effect.
Compound,"activity, negative = inhibition",Potency
Clc1ccc(Cl)c(NC2=NCC(CBr)S2)c1 (configuration not stated),inactive: 4.16%,–
CN1CCCC(OC(=O)C(c2ccccc2)c2ccccc2)C1 (configuration not stated),inactive: 1.47%,–
CCN(N=Nc1nonc1N)c1nonc1N,inactive: -5.62%,–
CC(=O)Nc1ccc([As](=O)(O)O)cc1,inactive: 6.18%,–
O=P(Nc1nc2ccc(Cl)cc2s1)(c1ccccc1)c1ccccc1,inactive: -18.9%,–
CCOP(=O)(Nc1ccccc1)OCC,–,inactive
Cc1cc(SC(NC(=O)c2ccc(F)cc2)C(Cl)(Cl)Cl)ncn1 (configuration not stated),inactive: -10.8%,–
Cc1ccc(NP(=O)(Oc2ccccc2F)Oc2ccccc2F)nc1,inactive: -1.53%,–
COC(=O)c1cc2c(s1)N=C(c1ccccc1)N(C)P2(=O)N1CCOCC1 (configuration not stated),inactive: 0.0892%,–
CC(=O)NC(SC(=S)N(CC(C)C)CC(C)C)C(Cl)(Cl)Cl (configuration not stated),inactive: -4.43%,–
Cc1ccc(OP(=O)(Nc2ccccn2)Oc2ccc(C)cc2)cc1,inactive: -2.72%,–
CCC(=O)N1C2C3N(C(=O)CC)C1C1N(C(=O)CC)C(C(N1C(=O)CC)N3C(=O)CC)N2C(=O)CC,inactive: -3.58%,–
Cc1ccccc1OP(=O)(Nc1ccccn1)Oc1ccccc1C,inactive: -9.9%,–
CN(C)C(=O)Oc1noc2ccccc12,inactive: 4.68%,–
O=c1c2cc([N+](=O)[O-])ccc2[nH]c2c([N+](=O)[O-])cc([N+](=O)[O-])cc12,–,active: 14.1 µM
CCNC(=S)/N=C(\N)N[N+](=O)[O-],inactive: -3.53%,–
O=C(NC1CCS(=O)(=O)C1)NP(=S)(Oc1ccccc1)Oc1ccccc1 (configuration not stated),inactive: -7.22%,–
c1ccc(-c2nn[nH]n2)c(-c2nn[nH]n2)c1,inactive: 1.57%,–
Cc1ccc(NP(=O)(Oc2cccc(C)c2)Oc2cccc(C)c2)nc1,inactive: -1.11%,–

Compound,"activity, negative = inhibition",Potency
CCOC(=O)NC(Sc1ccccc1)C(Cl)(Cl)Cl (configuration not stated),inactive: -20.7%,–
C[C@@H]1C=CCP(=O)(Oc2ccccc2)O1 (some centres not stated),inactive: 2.22%,–
C[C@H]1OP(=O)(Oc2ccccc2)C[C@@H]2O[C@@H]21 (some centres not stated),inactive: 4.52%,–
CC(=O)Nc1ccc([As](=O)(O)O)c(O)c1,inactive: -9.75%,–
CC(=O)Nc1ccc(Oc2c([N+](=O)[O-])cc([N+](=O)[O-])cc2[N+](=O)[O-])cc1,inactive: -16%,–
O=P1(Nc2nc3ccc(Cl)cc3s2)COc2ccccc2O1 (configuration not stated),inactive: -13.9%,–
CCOc1ccc(C2=NCC(CBr)S2)cc1 (configuration not stated),inactive: 3.08%,–
CC(C)(C)C(=O)NC(Sc1ccccc1)C(Cl)(Cl)Cl (configuration not stated),inactive: -3.34%,–
CC(C)C(=O)NC(Sc1ccccc1)C(Cl)(Cl)Cl (configuration not stated),inactive: -0.597%,–
O=P(Nc1nccs1)(c1ccccc1)c1ccccc1,inactive: 3.62%,–
c1nnnn1CCn1cnnn1,inactive: -5.2%,–
O=[As](O)(c1ccccc1)c1ccc(O)cc1,inactive: -0.594%,–
Nc1ccc([As](=O)(O)c2ccc([N+](=O)[O-])cc2)cc1,inactive: -10.2%,–
C(Cc1nn[nH]n1)Cc1nn[nH]n1,inactive: -3.49%,–
O=C(OC1CN2CCC1CC2)c1cccc(Cl)c1 (configuration not stated),inactive: 3.36%,–
O=P(Nc1ccccn1)(c1ccc(Br)cc1)c1ccc(Br)cc1,inactive: -1.88%,–
C[C@H]1OP(=O)(Oc2ccccc2)[C@H](O)[C@H](O)[C@H]1N=[N+]=[N-] (some centres not stated),inactive: 0.543%,–
CN(C(=O)Cc1ccccc1)[C@H]1CC[C@@]2(CCCO2)C[C@@H]1N1CCCC1,inactive: -17.6%,–
